JMJD2E inh: blocks human JMJD2E demethylase activity. AID 2147. 230,000 compounds, 1.6% hits. Potency, µM (titrated, usually from 57.1 µM), inactives show at the highest dose activity change, negative = inhibition, most hits filed as inhibitors. JMJD2E catalytic domain, FDH-coupled NADH fluorescence (FDH is formaldehyde dehydrogenase);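 further: potency means the concentration at half of the fitted maximal effect; 0% = wells with enzyme and -100% = buffer wells without enzyme; nearly all actives have a fitted effect of over 50% in size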
G9a block: inhibitors of human histone lysine methyltransferase G9a. AID 504332. Q96KQ7. Potency, µM (titrated, usually from 102 µM), for the others: at the highest dose activity, negative = inhibition, usual class: inhibitors. 350,000 compounds, 8.8% hits. G9a H3K9 monomethylation, AlphaScreen, 2 h; further: potency means the concentration at half of the fitted maximal effect; on the % scale 0 is the no-effect control and ±100 the full control effect; nearly all actives have a fitted effect of over 75% in size
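Using a bead-based AlphaScreen, monomethylated H3K9 product from 2 h room-temperature reactions (G9a 20 nM, peptide 500 nM, SAM 20 uM) was detected with 0.5 ug/mL rabbit anti-H3K9me1 antibody.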
LMNA splice mod: changes lamin A minigene splicing in HeLa cells. HeLa LMNA splicing GFP/RFP minigene ratio, 48 h. Potency, µM (doses to about 46.1 µM), inactives show at the top dose ratio change, negative = inhibition, hits mostly inhibitors. 200,000 compounds, 0.01% hits; active means well fitted inhibition curve with a large enough effect in the signal ratio, with a control signal flat, not every such curve was filed as active; inconclusive means small, poorly fitted or top-dose-only effect, or effect the other way, or a change in a side signal; the % refers to the signal ratio; further: potency means the concentration at half of the fitted maximal effect; on the % scale 0 is the no-effect control and ±100 the full control effect
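Read-out is the ratio of GFP to DsRed2 object intensity, acquired by 488 nm laser-scanning cytometry on HeLa lamin A-EGFP minigene reporter cells. Compound incubation 48 hrs at 37 °C in Opti-MEM with 2% FBS; DMSO 0.5% final.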
Sfp inh: qHTS Assay for Inhibitors of Bacillus subtilis Sfp phosphopantetheinyl transferase (PPTase); actives 3.5% (n = 310,000); AID 1490, 2009; Biochemical Sfp PPTase activity, qHTS; Potency, µM, for inactives: max response, negative = inhibition, usual class: inhibitors; 4'-phosphopantetheinyl transferase ffp (Bacillus subtilis), Q9F4F7; active means well fitted inhibition curve with a large enough effect; inconclusive means small, poorly fitted or top-dose-only effect, or another doubt; inactive means no such curve, though single readings can be large or run the other way;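 further: the enzyme is Sfp with the accession as filed and its product quenches rhodamine fluorescence; potency means the concentration at half of the fitted maximal effect; 0% = enzyme reaction without inhibitor and -100% = no enzyme wells; top concentration of the series not given in the record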
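With Hepes-Na pH 7.6 buffer containing 10 mM MgCl2, Sfp (15 nM) modified BHQ-2-YbbR (12.5 uM) using rhodamine-CoA (5 uM). Two reads 30 minutes apart at 525/598 nm yielded each well's rate.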
ALDH1A1 inh: ALDH1A1 (human) enzyme inhibition. P00352. AID 1030. 220,000 compounds, 7.3% hits. Potency, µM (doses to about 75.3 µM), inactives show at the highest dose activity, negative = inhibition, most hits filed as inhibitors. Purified ALDH1A1, NADH fluorescence, propionaldehyde substrate; active means well fitted inhibition curve with a large enough effect, not every such curve was filed as active; inconclusive means small, poorly fitted or top-dose-only effect, or another doubt; inactive means no such curve, though single readings can be large or run the other way;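 further: potency means the concentration at half of the fitted maximal effect; plate controls were no enzyme wells and a reference inhibitor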
miR-21 reporter: miR-21 reporter, rising signal; HeLa miR-21 FLuc reporter, luciferase, 48 h; Potency, µM (highest dose often 38.3 µM), for the others: top-dose reporter change, positive = more light; 340,000 tested, under 10 active; AID 2288; active = well fitted rising curve with a large enough effect; inconclusive = small, poorly fitted or top-dose-only effect; inactive = no such curve, though single readings can be large or run the other way;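 further: % of control where 0% means no effect; miR-21 action dims this reporter so a rising signal means less miR-21 action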
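Luminescence from a firefly luciferase reporter carrying a miR-21 binding site downstream, stably expressed under a CMV promoter in HeLa cells that make miR-21 endogenously, reports miRNA modulation after 48 h compound exposure up to approximately 40uM final.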
Starred values were filed as active, the others as inactive; ? = inconclusive; . = no result; [ ] = remark or other dose. An excerpt weighted towards active compounds, which were near 13% of everything screened. Unless noted, the call rests on the fitted dose curve; in most records, active means well fitted curve in the direction sought with a large enough effect; inconclusive means small, poorly fitted or top-dose-only effect, or another doubt; inactive means no such curve, though single readings can be large; an effect the other way counts as inactive or inconclusive.

Each structure is followed by: JMJD2E inh, G9a block, LMNA splice mod, Sfp inh, ALDH1A1 inh, miR-21 reporter
> CSc1ncc(C(=O)Nc2cc(Cl)ccc2C)c(-c2ccccc2)n1
 : ., -5%[59 µM], -17%[46 µM], ., ., 8%
> COc1cc(CN2CCCCCC2)cc(OC)c1OC
 : ., 32µM*, ., -11%, ., -8%
> COc1ccc(CN2CCC(N3CC(C)OC(C)C3)CC2)c(OC)c1 (stereo unspecified)
 : ., 8.9µM*, ., -25%, ., 0%
> COc1ccc(CN2CCN(Cc3ccc(C(F)(F)F)cc3)CC2)c(OC)c1
 : ., 40µM*, ., 71µM*, ., 17%
> COc1ccc(OC)c(CN2CCN(Cc3cc(OC)c(OC)c(OC)c3)CC2)c1
 : ., -9%[0.501 µM], ., -16%, ., -6%
> CS(=O)(=O)N1CCN(Cc2ccc(C(F)(F)F)cc2)CC1
 : ?, 3.2µM*, 7%, 56µM*, ?, 10%
> CC[C@H]1C2=C3C(CC[C@H]4C(OCc5ccc(F)cc5C(F)(F)F)OC[C@](C)([C@@H]34)N(C(=O)OC(C)(C)C)C2)C(COC)C1COC (stereo partly specified)
 : -4%, ., ., 16%, 0%, .
> COc1ccc(NC(=O)C2(c3cccs3)CCOCC2)cc1Cl
 : ., -17%[59 µM], ?, ., ., -6%
> COc1cc(Nc2ncc3c(n2)CCN(Cc2cc(Br)cs2)C3)cc(OC)c1
 : ., -19%[59 µM], ?, ., ., 0%
> CC(C)(C)c1cc(CN2CCCCC2)cc(C(C)(C)C)c1O
 : ?, ?, 10%, 35µM*, 14µM*, -6%
> COc1cc(CN2CCN(Cc3ccccc3C(F)(F)F)CC2)cc(OC)c1OC
 : ., -18%[2.33 µM], ., -30%, ., 5%
> CC(C)(C)c1cc(CCC(=O)N2CCC2)cc(C(C)(C)C)c1O
 : ., 100%, ., 5%, ., -18%
> COc1cc(CN2CCN(Cc3ccc(C(F)(F)F)cc3)CC2)cc(OC)c1OC
 : ., -2%[0.501 µM], ., 20µM*, ., 9%
> O=S(=O)(/N=C(/NC(=S)Nc1ccccc1)c1ccccc1)c1ccc(Cl)cc1
 : ., 11µM*, ., 45µM*, ., -55%
> CCOC(=S)N/C(=N\S(=O)(=O)c1ccc(C)cc1)c1ccccc1
 : -4%, 7.9µM*, -4%, 22µM*, 14µM*, -2%
> CCOc1ccc(S(=O)(=O)/N=C(\N)c2ccccc2)cc1
 : 5%, 35µM*, ., 18%, ., 6%
> O=C(O)c1ccc(N/C(=N\S(=O)(=O)c2ccc(Cl)cc2)c2ccccc2)cc1
 : 1%, ?, ., 22%, ., -14%
> COc1ccc(NC(=S)N/C(=N/S(=O)(=O)c2ccc(C)cc2)c2ccccc2)cc1
 : -14%, ?, 3%[46 µM], 50µM*, ?, -51%
> C/C(=N\S(=O)(=O)c1ccc(C)cc1)NC(=S)Nc1ccccc1
 : 10%, -33%, -1%[46 µM], 8%, ?, -7%
> Cc1ccc(S(=O)(=O)NN/C(=N/S(=O)(=O)c2ccccc2)c2ccccc2)cc1
 : 4%, ?, ., 9%, -5%, -3%

Overlap with the part before: 4 entries, then new ones.
Each structure is followed by: JMJD2E inh, G9a block, LMNA splice mod, Sfp inh, ALDH1A1 inh, miR-21 reporter
> O=C(O)c1ccc(N/C(=N\S(=O)(=O)c2ccc(Cl)cc2)c2ccccc2)cc1
 : 1%, ?, ., 22%, ., -14%
> COc1ccc(NC(=S)N/C(=N/S(=O)(=O)c2ccc(C)cc2)c2ccccc2)cc1
 : -14%, ?, 3%[46 µM], 50µM*, ?, -51%
> C/C(=N\S(=O)(=O)c1ccc(C)cc1)NC(=S)Nc1ccccc1
 : 10%, -33%, -1%[46 µM], 8%, ?, -7%
> Cc1ccc(S(=O)(=O)NN/C(=N/S(=O)(=O)c2ccccc2)c2ccccc2)cc1
 : 4%, ?, ., 9%, -5%, -3%
> CCOc1ccc(S(=O)(=O)/N=C(/c2ccccc2)N(C)C)cc1
 : 5%, -5%, 17%[46 µM], 17%, 1%, -5%
> CN1CCc2c(sc3nc(NN)n(-c4ccc(Cl)cc4)c(=O)c23)C1
 : ., 45µM*, ., -18%, ., -18%
> COc1ccc(-n2c(=S)[nH]c3sc4c(c3c2=O)CCN(C)C4)cc1
 : ?, 14µM*, ., ?, ., -9%
> O=c1c2c3c(sc2nc(NCCO)n1CCc1ccccc1)CCCCC3
 : -16%, 56µM*, -14%, 7%, ?, 7%
> CN1CCc2c(sc3nc(NN)n(Cc4ccccc4)c(=O)c23)C1
 : ?, 45µM*, ., -17%, 32µM*, -5%
> COc1ccc(-n2c(SC)nc3sc4c(c3c2=O)CCN(C)C4)cc1
 : ., ?, ., -6%, ., 2%
> CN(C)CCNc1nc2sc3c(c2c(=O)n1Cc1ccccc1)CCCCC3
 : ., ?, ., -27%, ., -10%
> O=c1c2c3c(sc2nc(NCCO)n1Cc1ccco1)CCCCC3
 : 7%, 1%, -9%, 9%, -9%, -81%
> COc1ccc(-n2c(N3CCN(C)CC3)nc3sc4c(c3c2=O)CCCCC4)cc1
 : 8%, -38%, -5%, -5%, 2.8µM*, -40%
> Fc1cccc(-c2n[nH]c(=S)n2-c2ccccc2)c1
 : ., 20%[0.501 µM], ., 14%, ., -11%
> Cc1nn(C)c(-c2n[nH]c(=S)n2-c2ccccc2)c1Cl
 : -5%, 3.2µM*, ?, 9%, ?, -30%
> C=CCNC(=O)CSc1nnc(-c2ccccc2Cl)n1-c1c(C)n(C)n(-c2ccccc2)c1=O
 : 0%, -2%[12.7 µM], 1%, 27%, 6%, -2%
> Cc1c(-n2c(-c3ccccc3Cl)n[nH]c2=S)c(=O)n(-c2ccccc2)n1C
 : -5%, 45µM*, ?, ?, 7%, -2%
> Cc1c(-c2n[nH]c(=S)n2-c2ccc(C(F)(F)F)cc2)nnn1-c1ccccc1
 : -6%, 10µM*, 6%, 2%, ?, -15%
> Cc1c(-c2n[nH]c(=S)n2-c2ccc(Br)cc2)nnn1-c1ccc(Cl)cc1
 : -11%, ?, -4%[9.22 µM], -14%, 11%, -14%
> Cc1ccc(-n2c(-c3cc(C)n(C)n3)n[nH]c2=S)cc1
 : -2%, 7.9µM*, -1%, ?, 2%, -7%
> CC(C)c1ccc(NC(=O)c2ccc3c(c2)C(=O)N(Cc2cccnc2)C3=O)cc1
 : ., 100%, ., 6%, ., 4%
> Cc1nc(N2CCCC2)c2c(C(=O)N3CCN(c4cc(Cl)ccc4C)CC3)c(C)oc2n1
 : ., ?, -2%[46 µM], ., ., ?
> CCC1CCCCN1CCCCOc1cccc(Cl)c1 (stereo unspecified)
 : ., -21%, ., -17%, ., -8%
> Cc1cc(-c2n[nH]c(=S)n2-c2ccccc2)nn1C
 : 3%, 8.9µM*, -11%, 79µM*, ?, -6%
> CC(=O)NC(CCS(C)(=O)=O)C(=O)Nc1cccc(C(C)=O)c1 (stereo unspecified)
 : -1%, 25µM*, 21%, 14%, ?, -9%
> COc1cc(-c2noc(CSc3nc(-c4ccccc4)cc(=O)[nH]3)n2)cc(OC)c1OC
 : ., -16%[59 µM], -17%[46 µM], ., ., 2%
> COc1ccc(-c2noc(CSc3nc(-c4ccccc4)cc(=O)[nH]3)n2)cc1OC
 : -4%, -18%[12.7 µM], 4%, 35µM*, ?, -2%
> COc1cc(OC)c(NC(c2nnc(-c3ccccc3)o2)c2ccc(F)cc2Cl)cc1Cl (stereo unspecified)
 : ., 11µM*, ., ., ., -8%
> O=C(OCC(=O)N1CCN(Cc2ccccc2)CC1)c1cc(Cl)ccc1[N+](=O)[O-]
 : ., 17%[12.7 µM], ., ., ., .
> Cc1ccc(SC2=C(Sc3ccc(C)cc3)C(=O)c3ccccc3C2=O)cc1
 : -13%, 2.8µM*, ., 7.1µM*, ., -56%
> CO/N=C(\Cn1ncc(N2CCCC2)c(Br)c1=O)c1ccc(Cl)cc1
 : -14%, ?, -8%, 89µM*, ?, 0%
> CN(C)C(=S)Nc1ccc(Cl)cc1
 : 9%, -51%, ., 25%, ., -4%
